Measurements reported in patent publication US20100029554A1, “Composition and Methods for Treatment of Congestive Heart Failure” (Amylin Pharmaceuticals, Inc., priority 2006, published 2010).

Biological target: T1, GLP-1 receptors (RINm5f cell membranes) (Rattus norvegicus, UniProt P32301)
T1 construct: RINm5f cells expressing endogenous GLP-1 receptors; endogenous in cells; host or cells: RINm5f cell membranes
T1 sequence (P32301 22-463): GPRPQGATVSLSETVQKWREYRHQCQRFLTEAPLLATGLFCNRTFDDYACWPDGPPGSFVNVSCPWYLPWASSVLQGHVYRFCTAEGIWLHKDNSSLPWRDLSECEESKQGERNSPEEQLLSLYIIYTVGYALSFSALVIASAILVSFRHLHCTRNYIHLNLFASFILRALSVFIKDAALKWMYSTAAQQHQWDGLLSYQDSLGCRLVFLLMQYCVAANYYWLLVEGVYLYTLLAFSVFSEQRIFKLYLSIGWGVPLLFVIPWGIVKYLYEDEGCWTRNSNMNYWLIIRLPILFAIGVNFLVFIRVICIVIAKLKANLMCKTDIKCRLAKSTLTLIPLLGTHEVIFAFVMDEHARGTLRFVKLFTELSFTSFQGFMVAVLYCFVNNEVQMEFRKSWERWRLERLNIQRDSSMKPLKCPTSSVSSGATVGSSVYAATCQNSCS
Assay: Receptor binding assay, RBA GLP (RIN)
Settings: [125I] human GLP-1 displacement
Excerpt: The well contents are harvested onto 96 well glass fiber plates using a Perkin Elmer plate harvestor. Dried glass fiber plates are combined with scintillant and counted on a Perkin Elmer scintillation counter.

Substance	IC50
GLP-1-(7-37)-GG-(S)-2,6-diamino-1-(thiazolidin-2-cyano-3-y1)hexan-1-one amide (HAEGTFTSDVSSYLEGQAAKEFIAWLVKGRGGG; C-terminal cyano DPP4 inhibitor moiety, amide) [Cmpd 4845]	0.1 nM
GLP-1-(7-37)-GG(S)-2,6-diamino-1-(thiazolidin-3-y1)hexan-1-one amide (HAEGTFTSDVSSYLEGQAAKEFIAWLVKGRGGG; C-terminal DPP4 inhibitor moiety, amide) [Cmpd 4844]	0.087 nM
